Where “and” joins values, the source holds several entries; their conditions need not be identical. Equal entries are not always repeated.
Key:
CSK = CSK (Homo sapiens, UniProt P41240); test: CSK enzymatic assay
IGF1R = IGF1R (Homo sapiens, UniProt P08069); test: IGF1R enzymatic assay; type: biochemical
From the text: (§1) Similar assays were used for other kinases (Tec kinase, interleukin [IL]-2-inducible T-cell kinase, B-lymphocyte kinase, T cell-expressed kinase, and bone marrow-expressed kinase), with ATP concentrations equal to the apparent Michaelis constant (KM^app) for each kinase.

Sequences of proteins named here, by UniProt entry; tags and fusion partners are left off. Residues count along the entry.
UniProt P41240, whole entry, species assumed: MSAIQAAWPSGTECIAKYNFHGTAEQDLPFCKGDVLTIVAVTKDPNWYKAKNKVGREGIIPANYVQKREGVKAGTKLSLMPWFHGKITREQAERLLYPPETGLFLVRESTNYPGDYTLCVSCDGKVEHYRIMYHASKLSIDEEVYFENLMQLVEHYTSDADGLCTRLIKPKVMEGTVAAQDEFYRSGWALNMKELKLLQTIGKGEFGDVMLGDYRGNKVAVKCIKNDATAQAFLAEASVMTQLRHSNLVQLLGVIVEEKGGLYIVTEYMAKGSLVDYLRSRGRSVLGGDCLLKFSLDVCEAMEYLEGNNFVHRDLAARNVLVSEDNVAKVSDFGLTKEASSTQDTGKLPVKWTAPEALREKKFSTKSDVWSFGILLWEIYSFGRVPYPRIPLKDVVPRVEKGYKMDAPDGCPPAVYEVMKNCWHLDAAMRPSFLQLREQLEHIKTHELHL
UniProt P08069, 31-1367, species assumed: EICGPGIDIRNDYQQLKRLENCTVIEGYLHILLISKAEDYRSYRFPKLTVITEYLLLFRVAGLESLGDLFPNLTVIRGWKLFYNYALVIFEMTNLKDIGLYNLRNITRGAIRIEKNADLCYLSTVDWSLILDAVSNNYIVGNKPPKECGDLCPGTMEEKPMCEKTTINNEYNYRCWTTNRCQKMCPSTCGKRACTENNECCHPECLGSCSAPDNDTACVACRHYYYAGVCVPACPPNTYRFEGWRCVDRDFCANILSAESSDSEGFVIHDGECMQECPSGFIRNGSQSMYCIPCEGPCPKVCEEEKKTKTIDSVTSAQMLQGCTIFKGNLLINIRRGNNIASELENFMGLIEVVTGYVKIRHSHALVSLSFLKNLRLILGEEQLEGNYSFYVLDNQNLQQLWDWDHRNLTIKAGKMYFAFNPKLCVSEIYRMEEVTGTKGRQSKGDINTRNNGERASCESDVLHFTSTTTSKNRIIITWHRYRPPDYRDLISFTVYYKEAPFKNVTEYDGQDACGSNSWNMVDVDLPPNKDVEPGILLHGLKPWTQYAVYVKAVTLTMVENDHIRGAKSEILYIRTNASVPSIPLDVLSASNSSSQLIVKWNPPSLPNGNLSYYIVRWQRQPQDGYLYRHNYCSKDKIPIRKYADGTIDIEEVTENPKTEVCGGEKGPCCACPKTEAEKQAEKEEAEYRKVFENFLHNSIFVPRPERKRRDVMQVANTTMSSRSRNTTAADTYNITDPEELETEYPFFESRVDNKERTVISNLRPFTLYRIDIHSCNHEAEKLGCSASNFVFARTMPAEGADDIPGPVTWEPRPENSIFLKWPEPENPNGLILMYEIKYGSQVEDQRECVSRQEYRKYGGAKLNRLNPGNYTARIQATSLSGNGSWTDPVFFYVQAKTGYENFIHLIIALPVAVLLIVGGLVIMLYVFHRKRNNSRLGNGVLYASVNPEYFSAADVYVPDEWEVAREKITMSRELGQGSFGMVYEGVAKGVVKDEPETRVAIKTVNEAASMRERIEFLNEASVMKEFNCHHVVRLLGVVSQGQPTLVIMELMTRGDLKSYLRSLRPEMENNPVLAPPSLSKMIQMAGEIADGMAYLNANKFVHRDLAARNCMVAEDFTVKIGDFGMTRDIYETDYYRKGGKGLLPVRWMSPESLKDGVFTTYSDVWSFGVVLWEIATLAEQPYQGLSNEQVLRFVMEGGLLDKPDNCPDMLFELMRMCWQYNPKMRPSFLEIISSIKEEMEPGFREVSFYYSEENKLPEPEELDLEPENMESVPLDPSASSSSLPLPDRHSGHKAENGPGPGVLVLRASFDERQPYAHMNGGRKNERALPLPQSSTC
UniProt P51451, whole entry, species assumed: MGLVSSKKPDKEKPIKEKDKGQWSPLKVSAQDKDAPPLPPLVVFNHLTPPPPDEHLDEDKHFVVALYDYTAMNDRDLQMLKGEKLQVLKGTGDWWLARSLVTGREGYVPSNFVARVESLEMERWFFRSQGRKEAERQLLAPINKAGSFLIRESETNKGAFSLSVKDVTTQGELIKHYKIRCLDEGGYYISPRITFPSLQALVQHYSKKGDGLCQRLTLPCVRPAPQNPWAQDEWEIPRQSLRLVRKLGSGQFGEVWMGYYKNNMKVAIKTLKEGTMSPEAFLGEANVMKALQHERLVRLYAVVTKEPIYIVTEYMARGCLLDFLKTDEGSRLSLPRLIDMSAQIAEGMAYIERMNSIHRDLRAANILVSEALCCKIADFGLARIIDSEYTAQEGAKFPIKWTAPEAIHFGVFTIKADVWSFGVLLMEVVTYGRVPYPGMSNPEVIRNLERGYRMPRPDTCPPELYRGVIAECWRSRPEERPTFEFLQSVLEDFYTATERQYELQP
UniProt P06239, whole entry, species assumed: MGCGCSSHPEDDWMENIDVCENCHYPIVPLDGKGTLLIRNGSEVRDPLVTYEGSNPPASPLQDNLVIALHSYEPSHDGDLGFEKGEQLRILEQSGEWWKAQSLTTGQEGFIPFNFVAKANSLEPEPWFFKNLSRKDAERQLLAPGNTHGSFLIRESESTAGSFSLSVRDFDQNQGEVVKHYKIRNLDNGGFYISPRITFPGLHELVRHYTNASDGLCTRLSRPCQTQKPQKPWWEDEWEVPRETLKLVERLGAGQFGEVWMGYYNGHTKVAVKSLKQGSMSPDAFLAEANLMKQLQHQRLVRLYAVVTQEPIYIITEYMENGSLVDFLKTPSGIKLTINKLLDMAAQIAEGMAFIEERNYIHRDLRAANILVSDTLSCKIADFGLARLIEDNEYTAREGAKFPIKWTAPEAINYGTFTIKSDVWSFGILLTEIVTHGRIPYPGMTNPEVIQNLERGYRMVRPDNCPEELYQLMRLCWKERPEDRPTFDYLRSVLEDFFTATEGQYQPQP

BLK = BLK (Homo sapiens, UniProt P51451); test: BLK enzymatic assay
Lck = Lck (Homo sapiens, UniProt P06239); test: Lck enzymatic assay
Tec = molecular target: T1, Tec (Homo sapiens, UniProt P42680); test: Tec kinase enzymatic assay; type: biochemical
T1 sequence (P42680 1-631): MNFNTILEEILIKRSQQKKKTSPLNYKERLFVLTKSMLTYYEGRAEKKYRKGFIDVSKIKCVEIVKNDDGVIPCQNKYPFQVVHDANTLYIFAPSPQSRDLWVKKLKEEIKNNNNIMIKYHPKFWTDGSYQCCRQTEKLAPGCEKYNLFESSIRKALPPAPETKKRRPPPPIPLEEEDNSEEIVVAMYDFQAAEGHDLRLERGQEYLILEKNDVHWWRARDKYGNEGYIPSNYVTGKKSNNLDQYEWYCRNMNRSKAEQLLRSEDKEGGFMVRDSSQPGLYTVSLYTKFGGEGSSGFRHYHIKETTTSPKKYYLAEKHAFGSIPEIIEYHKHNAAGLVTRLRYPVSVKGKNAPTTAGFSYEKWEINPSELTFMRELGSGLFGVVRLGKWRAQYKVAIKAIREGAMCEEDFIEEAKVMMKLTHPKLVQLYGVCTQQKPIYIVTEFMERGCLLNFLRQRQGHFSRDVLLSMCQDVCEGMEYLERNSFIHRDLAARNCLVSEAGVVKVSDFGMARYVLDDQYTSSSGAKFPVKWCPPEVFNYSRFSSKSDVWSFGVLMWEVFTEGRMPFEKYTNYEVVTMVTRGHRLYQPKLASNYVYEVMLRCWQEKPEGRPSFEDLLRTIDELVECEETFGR

FGR = FGR (Homo sapiens, UniProt P09769); test: FGR enzymatic assay; type: biochemical
From the text: as §1

Txk = molecular target: T2, Txk (Homo sapiens, UniProt P42681); test: Txk enzymatic assay; type: biochemical
T2 sequence (P42681 1-527): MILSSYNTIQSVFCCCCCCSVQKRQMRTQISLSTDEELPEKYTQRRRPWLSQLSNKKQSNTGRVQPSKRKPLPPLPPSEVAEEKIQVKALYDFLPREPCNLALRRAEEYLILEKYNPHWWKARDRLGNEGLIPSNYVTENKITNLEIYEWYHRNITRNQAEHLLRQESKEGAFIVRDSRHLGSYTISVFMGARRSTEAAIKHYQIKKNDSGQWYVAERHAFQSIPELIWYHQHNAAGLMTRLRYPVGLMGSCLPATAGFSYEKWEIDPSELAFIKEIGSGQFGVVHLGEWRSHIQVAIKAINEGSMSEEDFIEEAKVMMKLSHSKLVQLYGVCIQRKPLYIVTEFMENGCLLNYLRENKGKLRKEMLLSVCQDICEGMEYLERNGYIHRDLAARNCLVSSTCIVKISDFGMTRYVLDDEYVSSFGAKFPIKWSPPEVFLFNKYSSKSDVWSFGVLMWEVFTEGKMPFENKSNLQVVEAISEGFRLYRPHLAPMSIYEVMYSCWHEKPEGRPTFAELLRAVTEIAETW

ITK = molecular target: T3, ITK (Homo sapiens, UniProt Q08881); test: ITK enzymatic assay; type: biochemical
T3 sequence (Q08881 1-620): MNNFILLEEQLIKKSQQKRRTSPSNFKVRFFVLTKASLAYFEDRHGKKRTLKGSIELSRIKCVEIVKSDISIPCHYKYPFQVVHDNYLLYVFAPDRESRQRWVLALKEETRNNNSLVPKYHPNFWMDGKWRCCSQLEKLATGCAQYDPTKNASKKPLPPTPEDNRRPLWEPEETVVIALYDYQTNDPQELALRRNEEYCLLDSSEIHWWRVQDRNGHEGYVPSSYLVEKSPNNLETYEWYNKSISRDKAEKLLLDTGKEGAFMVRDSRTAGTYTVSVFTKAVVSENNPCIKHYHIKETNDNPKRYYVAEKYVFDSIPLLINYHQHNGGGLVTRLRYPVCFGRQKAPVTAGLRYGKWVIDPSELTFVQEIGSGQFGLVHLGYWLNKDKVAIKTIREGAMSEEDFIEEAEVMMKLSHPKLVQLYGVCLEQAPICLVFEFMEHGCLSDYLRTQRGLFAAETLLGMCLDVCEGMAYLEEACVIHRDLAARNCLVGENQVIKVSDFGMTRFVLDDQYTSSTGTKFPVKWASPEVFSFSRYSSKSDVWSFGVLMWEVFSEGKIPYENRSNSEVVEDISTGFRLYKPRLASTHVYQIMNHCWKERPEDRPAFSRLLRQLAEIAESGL

BMX = molecular target: T4, BMX (Homo sapiens, UniProt P51813); test: BMX enzymatic assay
T4 sequence (P51813 1-675): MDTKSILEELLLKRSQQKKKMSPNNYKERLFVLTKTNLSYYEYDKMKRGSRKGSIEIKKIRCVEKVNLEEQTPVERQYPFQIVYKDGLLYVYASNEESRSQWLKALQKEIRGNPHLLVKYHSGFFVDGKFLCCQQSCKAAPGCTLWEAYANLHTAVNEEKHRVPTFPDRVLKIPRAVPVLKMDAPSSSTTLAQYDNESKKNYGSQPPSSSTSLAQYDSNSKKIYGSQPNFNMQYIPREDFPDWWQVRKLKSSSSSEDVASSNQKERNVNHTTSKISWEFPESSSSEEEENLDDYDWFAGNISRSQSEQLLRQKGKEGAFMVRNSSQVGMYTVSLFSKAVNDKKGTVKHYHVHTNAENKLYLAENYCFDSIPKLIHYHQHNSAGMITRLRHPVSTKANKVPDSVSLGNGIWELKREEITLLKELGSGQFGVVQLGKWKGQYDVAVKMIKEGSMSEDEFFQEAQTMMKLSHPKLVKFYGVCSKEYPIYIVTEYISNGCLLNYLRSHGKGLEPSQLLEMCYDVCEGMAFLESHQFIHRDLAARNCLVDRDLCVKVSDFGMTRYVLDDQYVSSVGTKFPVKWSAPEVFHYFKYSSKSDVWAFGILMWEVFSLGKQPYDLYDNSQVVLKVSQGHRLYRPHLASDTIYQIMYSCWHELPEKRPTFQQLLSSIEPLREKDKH

- Fold selectivity for BTK, over CSK (CSK): 296×
- Fold selectivity for BTK, over IGF1R (IGF1R): 494×
- Fold selectivity for BTK, over BLK (BLK): 46×
- Fold selectivity for BTK, over Lck (Lck): 142×
- Fold selectivity for BTK, over Tec (Tec): < 30 × and 20×
- Fold selectivity for BTK, over FGR (FGR): 162×
- Fold selectivity for BTK, over Txk (Txk): 56×
- Fold selectivity for BTK, over ITK (ITK): 30×
- Fold selectivity for BTK, over BMX (BMX): 64×
Structure (SMILES): Cc1c(-c2c(F)cc(C(N)=O)c3[nH]c4c(c23)CC[C@H](C(C)(C)O)C4)cccc1-n1c(=O)c2cccc(F)c2n(C)c1=O [BMS-986142, 6-fluoro-5-(R)-(3-(S)-(8-fluoro-1-methyl-2,4-dioxo-1,2-dihydroquinazolin-3(4H)-yl)-2-methylphenyl)-2-(S)-(2-hydroxypropan-2-yl)-2,3,4,9-tetrahydro-1H-carbazole-8-carboxamide]
